Common to all, as to details: route intraperitoneal, strain Swiss Webster
Experiment [1] has as its system Brain. Description: Disruption of endocannabinoid metabolism in Swiss Webster mouse brain assessed as saturated C18:0 fatty acid level per gram of tissue at 4 mg/kg, ip after 4 hrs.
Experiment [2] deals with Brain. Description: Disruption of endocannabinoid metabolism in Swiss Webster mouse brain assessed as unsaturated C20:4 fatty acid level per gram of tissue at 4 mg/kg, ip after 4 hrs.
The test system of experiment [3] is Brain. Description: Disruption of endocannabinoid metabolism in Swiss Webster mouse brain expressing KIAA1363 gene assessed as unsaturated C24:1 fatty acid level per gram of tissue at 100 mg/kg, ip after 4 hrs.
Experiment [4] has as its system Brain. Description: Disruption of endocannabinoid metabolism in KIAA1363 deficient Swiss Webster mouse brain assessed as unsaturated N-oleoyl-ethanolamine level per gram of tissue at 100 mg/kg, ip after 4 hrs.
Experiment [5] concerns Brain. Description: Disruption of endocannabinoid metabolism in Swiss Webster mouse brain expressing KIAA1363 gene assessed as anandamide level per gram of tissue at 100 mg/kg, ip after 4 hrs.
The test system of experiment [6] is Brain. Description: Disruption of endocannabinoid metabolism in KIAA1363 deficient Swiss Webster mouse brain assessed as saturated C20:0 fatty acid level per gram of tissue at 100 mg/kg, ip after 4 hrs.
Experiment [7] concerns Brain. The experiment is described as follows: Disruption of endocannabinoid metabolism in KIAA1363 deficient Swiss Webster mouse brain assessed as unsaturated C18:2 fatty acid level per gram of tissue at 100 mg/kg, ip after 4 hrs.
Experiment [8] relates to Brain. Description: Disruption of endocannabinoid metabolism in Swiss Webster mouse brain expressing KIAA1363 gene assessed as saturated C24:0 fatty acid level per gram of tissue at 100 mg/kg, ip after 4 hrs.
In experiment [9] the test system is Brain. The experiment is described as follows: Disruption of endocannabinoid metabolism in Swiss Webster mouse brain expressing KIAA1363 gene assessed as saturated C20:0 fatty acid level per gram of tissue at 100 mg/kg, ip after 4 hrs.

In the case of `CCOP(=O)(OCC)Oc1nc(Cl)c(Cl)cc1Cl`, the Activity in the experiment on Brain [1] was determined as 576 pmol/g; in the experiment with Brain [2], 11 pmol/g.

On to `CCOP(=S)(OCC)Oc1nc(Cl)c(Cl)cc1Cl`, for which the Activity in the experiment on Brain [3] is 142 pmol/g; in the experiment with Brain [4], 880 pmol/g; with Brain [5], 0.018 nmol/g; with Brain [6], 154 pmol/g; in the experiment with Brain [7] it was 26 pmol/g; in the experiment on Brain [8], 1.9 pmol/g. Besides, the Activity in the experiment on Brain [9] turned out to be 145 pmol/g.

(Values after ChEMBL document CHEMBL1221209.)
